{"source": "patent US8575391B2", "about": "“5-substituted-2-phenylamino benzamides as MEK inhibitors” (priority 2004, dated 2013)", "system": "Human colon cancer cell line HT-29", "assay": "Tumor growth suppressive activity in mouse model carrying human cancer (HT-29 xenograft)", "conditions": "HT-29 subcutaneous in BALB/c nu/nu mice, oral once a day for 14 days"}
{"smiles": "C#Cc1ccc(Nc2c(C(=O)NOCCO)cc(CN3OCCCC3=O)c(F)c2F)c(F)c1", "note": "[Compound G-4, 2-(4-Ethynyl-2-fluoro-phenylamino)-3,4-difluoro-N-(2-hydroxy-ethoxy)-5-(3-oxo-[1,2]oxadinan-2-ylmethyl)-benzamide]", "values": [{"measurement": "Tumor growth suppression rate at maximum tolerance dose (MTD) 1 day after last administration", "result": 112, "unit": "%"}]}
